In ChEMBL document CHEMBL1125665, “Quaternary salts of 2-[(hydroxyimino)methyl]imidazole. 5. Structure-activity relationships for side-chain nitro-, sulfone-, amino-, and aminosulfonyl-substituted analogues for therapy against anticholinesterase intoxication” (1991):

These molecules were tested against T1, Acetylcholinesterase (Mus musculus) (UniProt P21836) (assay: Antidotal activity measured in mice exposed to soman; activity expressed as the no. of survivors at 24 hr out of population of 10 mice exposed intramuscularly at a dose 1/16 of 2LD50 of the compound).
T1 sequence (whole entry): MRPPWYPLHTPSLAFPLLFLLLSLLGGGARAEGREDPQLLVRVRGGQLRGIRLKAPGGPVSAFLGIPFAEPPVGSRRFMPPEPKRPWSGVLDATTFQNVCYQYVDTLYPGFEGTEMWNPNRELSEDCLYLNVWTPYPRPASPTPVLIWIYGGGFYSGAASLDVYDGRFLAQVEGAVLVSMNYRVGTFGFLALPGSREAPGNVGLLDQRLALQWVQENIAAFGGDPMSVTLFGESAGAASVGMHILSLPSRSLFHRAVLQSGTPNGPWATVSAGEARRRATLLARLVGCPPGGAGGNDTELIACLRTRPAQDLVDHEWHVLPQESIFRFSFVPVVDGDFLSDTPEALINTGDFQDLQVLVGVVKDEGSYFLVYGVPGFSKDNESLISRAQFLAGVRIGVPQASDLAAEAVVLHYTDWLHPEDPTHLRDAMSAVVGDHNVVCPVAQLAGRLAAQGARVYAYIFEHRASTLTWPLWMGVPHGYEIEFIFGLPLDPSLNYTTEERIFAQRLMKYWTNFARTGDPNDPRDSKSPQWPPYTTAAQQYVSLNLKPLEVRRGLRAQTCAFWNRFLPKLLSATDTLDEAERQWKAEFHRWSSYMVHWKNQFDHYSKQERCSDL
Molecule `CC[n+]1ccn(COCC(C)(C)[N+](=O)[O-])c1/C=N/O` has a No. of survivors of 6. Molecule `C[n+]1ccn(CCNS(=O)(=O)c2ccccc2)c1/C=N/O` has a No. of survivors of 10. In the case of `CCS(=O)(=O)CC(C)OCn1cc[n+](C)c1/C=N/O` (configuration not stated), the No. of survivors is reported as 3. `CC[n+]1ccn(COC(C)C(C)[N+](=O)[O-])c1/C=N/O` (configuration not stated) was tested, and the No. of survivors was 1. For `CC[n+]1ccn(CCCC(C)(C)[N+](=O)[O-])c1/C=N/O`, the No. of survivors was 7. `CCN(CCCn1cc[n+](C)c1/C=N/O)S(=O)(=O)c1ccccc1` was tested, and the No. of survivors was 0. `CCN(CC)CCCn1cc[n+](C)c1/C=N/O` was tested, and the No. of survivors was 0. With `C[n+]1ccn(COCCC[N+](=O)[O-])c1/C=N/O` the No. of survivors was 7. For `C[n+]1ccn(CCOCCS(C)(=O)=O)c1/C=N/O`, the No. of survivors was 0. `C[n+]1ccn(COC2CCCC[C@H]2S(C)(=O)=O)c1/C=N/O` (some centres not stated) showed a No. of survivors of 0. In the case of `CC(C)N(CCn1cc[n+](C)c1/C=N/O)C(C)C`, the No. of survivors is reported as 0. With `C[n+]1ccn(CCN2CCOCC2)c1/C=N/O` the No. of survivors was 0. For `CCN(CCCn1cc[n+](C)c1/C=N/O)S(C)(=O)=O`, the No. of survivors was 1. For `CC([N+](=O)[O-])C(C)(C)OCn1cc[n+](C)c1/C=N/O` (configuration not stated), the No. of survivors was 10. `CC(Cn1cc[n+](C)c1/C=N/O)NS(=O)(=O)C(F)(F)F` (configuration not stated) gave a No. of survivors of 5. `C[n+]1ccn(CCN2CCCCC2)c1/C=N/O` gave a No. of survivors of 1. With `CN(C)CCCn1cc[n+](C)c1/C=N/O` the No. of survivors was 0. `C[n+]1ccn(CCC[n+]2cccc(C(=O)c3ccccc3)c2)c1/C=N/O` was tested, and the No. of survivors was 3. `CCC[n+]1ccn(COCCS(C)(=O)=O)c1/C=N/O` was tested, and the No. of survivors was 0. Molecule `CC(COCn1cc[n+](C)c1/C=N/O)[N+](=O)[O-]` (configuration not stated) has a No. of survivors of 0. In the case of `CCS(=O)(=O)CCn1cc[n+](C)c1/C=N/O`, the No. of survivors is reported as 6. For `C#CCCOCn1ccnc1/C=N/O`, the No. of survivors was 0. `CC(CS(C)(=O)=O)OCn1cc[n+](C)c1/C=N/O` (configuration not stated) gave a No. of survivors of 8. In the case of `CC[n+]1ccn(COC(C)C(C)S(C)(=O)=O)c1/C=N/O` (configuration not stated), the No. of survivors is reported as 2. Molecule `CC(Cn1cc[n+](C)c1/C=N/O)[N+](=O)[O-]` (configuration not stated) has a No. of survivors of 0. `CN(CCCn1cc[n+](C)c1/C=N/O)S(C)(=O)=O` showed a No. of survivors of 9. `CC(OCn1cc[n+](C)c1/C=N/O)C(C)[N+](=O)[O-]` (configuration not stated) gave a No. of survivors of 9. In the case of `CCN(CCn1cc[n+](C)c1/C=N/O)S(=O)(=O)c1ccccc1`, the No. of survivors is reported as 7. `CC(C[N+](=O)[O-])OCn1cc[n+](C)c1/C=N/O` (configuration not stated) gave a No. of survivors of 2. `CC[n+]1ccn(COCCS(C)(=O)=O)c1/C=N/O` was tested, and the No. of survivors was 2. With `CC[n+]1ccn(CCN(C)C)c1/C=N/O` the No. of survivors was 0. For `C[n+]1ccn(CC[N+](C)(C)C)c1/C=N/O`, the No. of survivors was 0. `CC[n+]1ccn(COC(C)(C)C(C)[N+](=O)[O-])c1/C=N/O` (configuration not stated) gave a No. of survivors of 8. `CC[n+]1ccn(COCCS(=O)(=O)CC)c1/C=N/O` was tested, and the No. of survivors was 4.

These molecules were tested against T1, Acetylcholinesterase (Mus musculus) (assay: antidotal activity measured in mice exposed to soman; activity expressed as the no. of survivors at 24 hr out of population of 10 mice exposed intramuscularly at the dose 1/4 of 2LD50 of the compound).
Molecule `CC[n+]1ccn(COCC(C)(C)[N+](=O)[O-])c1/C=N/O` has a No. of survivors of 8. In the case of `C[n+]1ccn(CCNS(=O)(=O)c2ccccc2)c1/C=N/O`, the No. of survivors is reported as 7. With `CCS(=O)(=O)CC(C)OCn1cc[n+](C)c1/C=N/O` (configuration not stated) the No. of survivors was 8. For `CC[n+]1ccn(COC(C)C(C)[N+](=O)[O-])c1/C=N/O` (configuration not stated), the No. of survivors was 8. With `CC[n+]1ccn(CCCC(C)(C)[N+](=O)[O-])c1/C=N/O` the No. of survivors was 6. Molecule `CCN(CCCn1cc[n+](C)c1/C=N/O)S(=O)(=O)c1ccccc1` has a No. of survivors of 1. Work on `C[n+]1ccn(COCCC[N+](=O)[O-])c1/C=N/O` yielded a No. of survivors of 10. `C[n+]1ccn(CCOCCS(C)(=O)=O)c1/C=N/O` gave a No. of survivors of 6. `C[n+]1ccn(COC2CCCC[C@H]2S(C)(=O)=O)c1/C=N/O` (some centres not stated) gave a No. of survivors of 1. Molecule `CC(C)N(CCn1cc[n+](C)c1/C=N/O)C(C)C` has a No. of survivors of 1. `C[n+]1ccn(CCN2CCOCC2)c1/C=N/O` showed a No. of survivors of 3. In the case of `CCN(CCCn1cc[n+](C)c1/C=N/O)S(C)(=O)=O`, the No. of survivors is reported as 5. `CC([N+](=O)[O-])C(C)(C)OCn1cc[n+](C)c1/C=N/O` (configuration not stated) gave a No. of survivors of 9. Work on `CC(Cn1cc[n+](C)c1/C=N/O)NS(=O)(=O)C(F)(F)F` (configuration not stated) yielded a No. of survivors of 5. Work on `C[n+]1ccn(CCN2CCCCC2)c1/C=N/O` yielded a No. of survivors of 7. `CN(C)CCCn1cc[n+](C)c1/C=N/O` showed a No. of survivors of 8. With `C[n+]1ccn(CCC[n+]2cccc(C(=O)c3ccccc3)c2)c1/C=N/O` the No. of survivors was 9. In the case of `CCC[n+]1ccn(COCCS(C)(=O)=O)c1/C=N/O`, the No. of survivors is reported as 9. In the case of `CC(COCn1cc[n+](C)c1/C=N/O)[N+](=O)[O-]` (configuration not stated), the No. of survivors is reported as 6. For `CCS(=O)(=O)CCn1cc[n+](C)c1/C=N/O`, the No. of survivors was 5. In the case of `C#CCCOCn1ccnc1/C=N/O`, the No. of survivors is reported as 1. `CC(CS(C)(=O)=O)OCn1cc[n+](C)c1/C=N/O` (configuration not stated) showed a No. of survivors of 5. `CC[n+]1ccn(COC(C)C(C)S(C)(=O)=O)c1/C=N/O` (configuration not stated) showed a No. of survivors of 10. Work on `CC(Cn1cc[n+](C)c1/C=N/O)[N+](=O)[O-]` (configuration not stated) yielded a No. of survivors of 4. With `CN(CCCn1cc[n+](C)c1/C=N/O)S(C)(=O)=O` the No. of survivors was 8. Molecule `CC(OCn1cc[n+](C)c1/C=N/O)C(C)[N+](=O)[O-]` (configuration not stated) has a No. of survivors of 9. With `CCN(CCn1cc[n+](C)c1/C=N/O)S(=O)(=O)c1ccccc1` the No. of survivors was 1. Work on `CC(C[N+](=O)[O-])OCn1cc[n+](C)c1/C=N/O` (configuration not stated) yielded a No. of survivors of 9. `CC[n+]1ccn(COCCS(C)(=O)=O)c1/C=N/O` showed a No. of survivors of 9. Work on `CC[n+]1ccn(CCN(C)C)c1/C=N/O` yielded a No. of survivors of 1. `C[n+]1ccn(CC[N+](C)(C)C)c1/C=N/O` showed a No. of survivors of 2. Work on `CC[n+]1ccn(COC(C)(C)C(C)[N+](=O)[O-])c1/C=N/O` (configuration not stated) yielded a No. of survivors of 10. Work on `CC[n+]1ccn(COCCS(=O)(=O)CC)c1/C=N/O` yielded a No. of survivors of 9.

What follows are molecules tested against T1, Acetylcholinesterase (Mus musculus) (assay: Antidotal activity measured in mice exposed to tabun; activity expressed as the no. of survivors at 24 hr out of population of 10 mice each exposed intramuscularly at the dose 1/16 of 2LD50 of the compound).
`C[n+]1ccn(CCNS(=O)(=O)c2ccccc2)c1/C=N/O` showed a No. of survivors of 10. In the case of `CCS(=O)(=O)CC(C)OCn1cc[n+](C)c1/C=N/O` (configuration not stated), the No. of survivors is reported as 1. Work on `CCN(CCCn1cc[n+](C)c1/C=N/O)S(=O)(=O)c1ccccc1` yielded a No. of survivors of 6. For `C[n+]1ccn(COC2CCCC[C@H]2S(C)(=O)=O)c1/C=N/O` (some centres not stated), the No. of survivors was 0. In the case of `CC(C)N(CCn1cc[n+](C)c1/C=N/O)C(C)C`, the No. of survivors is reported as 0. Molecule `C[n+]1ccn(CCN2CCCCC2)c1/C=N/O` has a No. of survivors of 0. `C[n+]1ccn(CCC[n+]2cccc(C(=O)c3ccccc3)c2)c1/C=N/O` was tested, and the No. of survivors was 7. Work on `CCS(=O)(=O)CCn1cc[n+](C)c1/C=N/O` yielded a No. of survivors of 1. In the case of `CC(CS(C)(=O)=O)OCn1cc[n+](C)c1/C=N/O` (configuration not stated), the No. of survivors is reported as 8. `CC[n+]1ccn(COC(C)C(C)S(C)(=O)=O)c1/C=N/O` (configuration not stated) showed a No. of survivors of 0.
